Among the data in publication PMC3077805 are Km values, retold here.

This series deals with C[S+](CC[C@H](N)C(=O)O)C[C@H]1O[C@@H](n2cnc3c(N)ncnc32)[C@H](O)[C@@H]1O. Put plainly: purified protein.

What is called Km is the substrate concentration at which the rate is half of its maximum.

“CqsA (Vibrio cholerae O1 biovar El Tor str. N16961)”: the Km is 28.7 µM.
